System: EntC2 peptide
Assay: FIDA, EntC2
Type: binding
Details: Fluo-EntC1 100 nM, EntC2 added, 0.1% DDM

With `CC[C@H](C)[C@H](NC(=O)[C@H](CCCCN)NC(=O)[C@H](CO)NC(=O)[C@H](Cc1ccccc1)NC(=O)[C@@H](NC(=O)[C@H](CO)NC(=O)[C@@H](N)CCC(=O)O)C(C)C)C(=O)NCC(=O)N[C@@H](CC(N)=O)C(=O)N[C@@H](C)C(=O)N[C@H](C(=O)NCC(=O)N1CCC[C@H]1C(=O)N[C@@H](C)C(=O)N[C@@H](C)C(=O)N[C@@H](Cc1ccc(O)cc1)C(=O)N[C@@H](Cc1c[nH]c2ccccc12)C(=O)N[C@H](C(=O)N[C@@H](CC(C)C)C(=O)N[C@@H](CCCCN)C(=O)NCC(=O)N[C@@H](CC(C)C)C(=O)NCC(=O)N[C@@H](CC(N)=O)C(=O)N[C@@H](CCSC)C(=O)N[C@@H](CO)C(=O)N[C@@H](CC(=O)O)C(=O)N[C@H](C(=O)N[C@@H](CC(N)=O)C(=O)N[C@@H](CCC(N)=O)C(=O)N[C@@H](C)C(=O)N[C@@H](CC(=O)O)C(=O)N[C@@H](CCCNC(=N)N)C(=O)N[C@H](C(=O)N[C@@H](CC(N)=O)C(=O)N[C@@H](CCCNC(=N)N)C(=O)N[C@@H](CCCCN)C(=O)N[C@@H](CCCCN)C(=O)N[C@@H](Cc1c[nH]cn1)C(=O)O)[C@@H](C)CC)C(C)C)[C@@H](C)CC)C(C)C` (single isomer, unassigned) [EntC1] as the compound, how does the “hydrodynamic radius (Rh) with EntC2” value read?
The value was “did not induce an increase of EntC1 Rh”.
